Measured values taken from ChEMBL document CHEMBL4038342, “Hydrophilic, Potent, and Selective 7-Substituted 2-Aminoquinolines as Improved Human Neuronal Nitric Oxide Synthase Inhibitors” (J Med Chem, 2017).

By UniProt entry, the sequences of proteins in these tests, tags left out.
UniProt P29476, whole entry: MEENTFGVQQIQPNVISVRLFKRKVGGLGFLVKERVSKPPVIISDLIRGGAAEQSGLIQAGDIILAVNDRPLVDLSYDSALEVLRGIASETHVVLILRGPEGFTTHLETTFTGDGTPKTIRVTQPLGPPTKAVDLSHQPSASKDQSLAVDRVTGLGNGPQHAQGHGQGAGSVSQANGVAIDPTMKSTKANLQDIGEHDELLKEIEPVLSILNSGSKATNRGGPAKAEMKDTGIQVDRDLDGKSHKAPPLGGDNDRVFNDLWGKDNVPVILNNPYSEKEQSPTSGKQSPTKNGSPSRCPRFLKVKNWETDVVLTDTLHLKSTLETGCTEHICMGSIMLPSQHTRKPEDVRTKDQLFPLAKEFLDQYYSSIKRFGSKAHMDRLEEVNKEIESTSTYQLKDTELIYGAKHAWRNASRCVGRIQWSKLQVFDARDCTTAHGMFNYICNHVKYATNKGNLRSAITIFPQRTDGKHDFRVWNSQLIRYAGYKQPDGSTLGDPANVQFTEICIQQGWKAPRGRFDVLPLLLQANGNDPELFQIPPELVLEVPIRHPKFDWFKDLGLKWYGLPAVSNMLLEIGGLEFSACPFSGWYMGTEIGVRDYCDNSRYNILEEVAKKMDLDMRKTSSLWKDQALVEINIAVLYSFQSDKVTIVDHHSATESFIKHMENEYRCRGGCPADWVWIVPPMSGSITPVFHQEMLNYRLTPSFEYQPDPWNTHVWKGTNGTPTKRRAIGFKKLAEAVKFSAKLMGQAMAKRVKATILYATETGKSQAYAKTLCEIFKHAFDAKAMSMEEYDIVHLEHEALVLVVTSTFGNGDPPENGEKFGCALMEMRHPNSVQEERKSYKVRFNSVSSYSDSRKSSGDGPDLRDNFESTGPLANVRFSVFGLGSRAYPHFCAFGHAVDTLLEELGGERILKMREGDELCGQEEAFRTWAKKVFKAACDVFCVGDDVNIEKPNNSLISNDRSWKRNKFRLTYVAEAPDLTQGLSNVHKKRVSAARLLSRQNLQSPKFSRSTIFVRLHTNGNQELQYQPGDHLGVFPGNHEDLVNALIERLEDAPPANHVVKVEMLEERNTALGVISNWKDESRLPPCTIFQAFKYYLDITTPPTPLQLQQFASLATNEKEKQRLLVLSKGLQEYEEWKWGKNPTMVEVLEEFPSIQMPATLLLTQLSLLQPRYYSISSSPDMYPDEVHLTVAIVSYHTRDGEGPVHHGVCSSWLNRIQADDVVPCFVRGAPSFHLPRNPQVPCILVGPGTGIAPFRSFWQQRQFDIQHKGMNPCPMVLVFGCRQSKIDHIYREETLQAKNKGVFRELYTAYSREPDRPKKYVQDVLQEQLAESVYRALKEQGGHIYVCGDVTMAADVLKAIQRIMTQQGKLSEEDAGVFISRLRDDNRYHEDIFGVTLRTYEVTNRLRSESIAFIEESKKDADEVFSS
UniProt P29475, whole entry: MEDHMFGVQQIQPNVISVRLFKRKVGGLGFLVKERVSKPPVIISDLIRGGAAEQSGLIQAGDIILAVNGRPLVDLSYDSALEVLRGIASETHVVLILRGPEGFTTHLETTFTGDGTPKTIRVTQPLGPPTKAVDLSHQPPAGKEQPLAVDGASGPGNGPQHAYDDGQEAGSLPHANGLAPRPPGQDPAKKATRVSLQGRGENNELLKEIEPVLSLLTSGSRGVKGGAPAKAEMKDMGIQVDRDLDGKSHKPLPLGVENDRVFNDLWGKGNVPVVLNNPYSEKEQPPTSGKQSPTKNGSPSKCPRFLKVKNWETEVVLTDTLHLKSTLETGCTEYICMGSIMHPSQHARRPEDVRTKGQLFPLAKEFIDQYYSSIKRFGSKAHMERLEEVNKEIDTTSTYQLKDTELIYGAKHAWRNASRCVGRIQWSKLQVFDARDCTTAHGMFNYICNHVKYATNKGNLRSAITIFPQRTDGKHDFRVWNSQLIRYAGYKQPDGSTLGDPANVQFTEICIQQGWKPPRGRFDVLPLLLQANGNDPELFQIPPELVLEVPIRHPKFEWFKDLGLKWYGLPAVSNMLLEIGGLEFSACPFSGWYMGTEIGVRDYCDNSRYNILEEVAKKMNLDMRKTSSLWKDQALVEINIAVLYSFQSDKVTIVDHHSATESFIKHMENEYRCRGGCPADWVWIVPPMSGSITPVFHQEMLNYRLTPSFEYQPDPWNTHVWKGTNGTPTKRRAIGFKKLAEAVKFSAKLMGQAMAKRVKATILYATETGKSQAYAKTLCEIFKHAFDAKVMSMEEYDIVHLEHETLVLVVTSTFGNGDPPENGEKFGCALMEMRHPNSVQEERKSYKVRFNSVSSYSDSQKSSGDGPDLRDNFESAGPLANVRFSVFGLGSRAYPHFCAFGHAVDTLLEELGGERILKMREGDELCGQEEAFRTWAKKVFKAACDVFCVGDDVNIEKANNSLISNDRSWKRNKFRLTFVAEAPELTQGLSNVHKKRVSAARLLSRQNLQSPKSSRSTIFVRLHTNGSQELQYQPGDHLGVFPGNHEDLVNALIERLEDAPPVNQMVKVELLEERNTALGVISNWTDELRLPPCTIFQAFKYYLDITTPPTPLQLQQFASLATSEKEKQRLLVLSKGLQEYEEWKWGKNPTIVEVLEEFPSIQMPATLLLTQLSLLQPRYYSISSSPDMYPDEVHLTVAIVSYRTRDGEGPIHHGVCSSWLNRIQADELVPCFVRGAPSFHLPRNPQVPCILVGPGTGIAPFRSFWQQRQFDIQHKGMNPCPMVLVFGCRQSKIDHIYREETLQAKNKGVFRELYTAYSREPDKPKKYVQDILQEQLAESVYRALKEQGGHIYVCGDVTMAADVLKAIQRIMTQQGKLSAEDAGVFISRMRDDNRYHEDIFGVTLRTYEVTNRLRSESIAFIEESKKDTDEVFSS

Experiments:
Nitric oxide synthase 1 [1] = biological target: Nitric oxide synthase 1 (Rattus norvegicus, UniProt P29476)
Nitric oxide synthase 1 [2] = biological target: Nitric oxide synthase 1 (Homo sapiens, UniProt P29475)

SMILES: COc1ccncc1CCCNCc1ccc2ccc(N)nc2c1
- Ki (Nitric oxide synthase 1 [1]): 0.05 µM
- Ki (Nitric oxide synthase 1 [2]): 0.073 µM
